Laboratory results: patent US20250340565A1, “CD73 INHIBITOR COMPOUNDS” (AdoRx Therapeutics Limited, priority 2022, published 2025)

Amino acid sequences for entries named in this document (tags omitted). Residues count along the entry.
UniProt P21589, 27-574 limits assumed: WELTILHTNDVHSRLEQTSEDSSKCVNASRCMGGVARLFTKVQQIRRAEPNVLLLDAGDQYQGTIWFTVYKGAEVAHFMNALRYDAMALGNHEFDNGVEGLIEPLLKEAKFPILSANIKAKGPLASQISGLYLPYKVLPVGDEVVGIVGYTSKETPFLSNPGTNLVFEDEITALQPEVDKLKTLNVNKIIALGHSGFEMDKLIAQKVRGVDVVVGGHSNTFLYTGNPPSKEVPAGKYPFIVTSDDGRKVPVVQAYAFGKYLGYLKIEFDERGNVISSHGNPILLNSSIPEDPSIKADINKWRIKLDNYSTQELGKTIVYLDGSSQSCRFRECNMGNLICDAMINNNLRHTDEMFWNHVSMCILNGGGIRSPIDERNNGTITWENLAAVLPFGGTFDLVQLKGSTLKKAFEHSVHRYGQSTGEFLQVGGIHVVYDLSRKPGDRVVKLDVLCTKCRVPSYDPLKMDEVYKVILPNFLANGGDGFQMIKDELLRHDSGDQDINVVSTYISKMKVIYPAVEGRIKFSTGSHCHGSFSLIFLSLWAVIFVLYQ
UniProt P21589, 27-549 limits assumed: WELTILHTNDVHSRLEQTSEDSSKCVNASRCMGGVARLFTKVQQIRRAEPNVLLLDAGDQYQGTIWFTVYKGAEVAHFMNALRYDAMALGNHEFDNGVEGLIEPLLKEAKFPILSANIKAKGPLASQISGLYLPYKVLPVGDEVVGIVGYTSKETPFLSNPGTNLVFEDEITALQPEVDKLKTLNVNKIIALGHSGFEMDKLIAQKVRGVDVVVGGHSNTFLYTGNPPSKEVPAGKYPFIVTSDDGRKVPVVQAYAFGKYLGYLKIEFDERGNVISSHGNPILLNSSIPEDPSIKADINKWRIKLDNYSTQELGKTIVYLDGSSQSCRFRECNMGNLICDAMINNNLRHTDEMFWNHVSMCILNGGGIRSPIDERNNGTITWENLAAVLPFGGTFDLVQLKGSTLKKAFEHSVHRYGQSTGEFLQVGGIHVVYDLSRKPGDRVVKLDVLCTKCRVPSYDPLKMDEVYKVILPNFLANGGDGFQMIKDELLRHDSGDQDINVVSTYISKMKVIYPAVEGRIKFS

Experiments:
[1] = target: CD73 activity in U138-MG cells (Homo sapiens (Human), UniProt P21589); assay: U138-MG inhibition assay (inorganic phosphate from AMP, PiColorLock Gold); conditions: 100 μM AMP, 30 min pre-incubation, 1 hour at 37° C.
Method: U138-MG cells from ATCC are cultured in DMEM (Gibco 31966) with 10% FBS. Cells are seeded into 96-well culture plates (5,000 cell/well) in 100 μL of media for 24 hr. Cells are washed twice with 200 μL of assay buffer (20 mM HEPES, pH 7.4; 137 mM NaCl; 5.4 mM KCl; 1.3 mM CaCl2; 4.2 mM NaHCO3; 1 mg/mL glucose) to remove residual inorganic phosphate. CD73 inhibitor is added to each well in 100 μl volume and preincubated for 30 mins at 37° C. An equal volume of AMP substrate (Sigma A1572) is added to each well at a final concentration of 100 μM and incubated at 37° C. for 1 hour. Control wells containing cells but lacking added AMP, define the assay signal equivalent to 100% inhibition of CD73 activity. Supernatant is removed for measurement of inorganic phosphate using the PiColorLock Gold kit (Abcam, ab 270004).
The IC50 values of test compounds are determined as the inflection point of the sigmoidal concentration response curve.

CD73 in whole blood = CD73 in whole blood (Homo sapiens (Human), UniProt P21589); assay: Whole blood AMP Glo assay; conditions: whole blood of healthy volunteers, 10 μM AMP, 30 min pre-incubation, 15 min at 37° C., levamisole 1.5 mM
Method: Blood is drawn from healthy volunteers by venepuncture and anti-coagulated with Lithium Heparin (10 IU/mi). 150 μl of blood is added to U-bottom polypropylene 96-well assay plates pre-filled with 20 μl of compound dilutions prepared in RPMI also containing the Tissue Non-specific Alkaline Phosphatase inhibitor Levamisole (final assay concentration 1.5 mM). Control wells to define uninhibited CD73 contain DMSO in place of compound. Control wells to define complete stabilization of AMP attributable to CD73 contain LY3475070 (CAS: 2375815-63-5) at 30 μM final assay concentration.
Compounds are pre-incubated with whole blood at 37° C. for 30 minutes. Following this, AMP is added in a 30 μl volume for a final assay concentration of 10 μM, mixed, and the plates are incubated for 15 minutes at 37° C. Final DMSO concentration/well is 0.6% and final volume/well is 200 μL. After incubating with AMP, the plates are placed on ice and then centrifuged at 2000 g for 10 minutes at 4° C. […]
The stabilized AMP concentration in diluted plasma is measured using AMP-Glo kit (Promega), in parallel with a standard curve of known AMP concentrations, with a final volume of 40 μl in white flat bottom half-well 96-well plates (Corning). Signal is measured by Luminescence. The IC50 values of test compounds are determined as the inflection point of the sigmoidal concentration response curve.

[2] = target: human (h)CD73 (amino acids Trp27-Lys547) (Homo sapiens, UniProt P21589); assay: CD73 inhibition assay (Malachite Green phosphate detection); conditions: 250 pM hCD73, 12.5 μM AMP, 20 min pre-incubation, absorbance 620 nm
Method: Compound inhibition of human (h)CD73 (amino acids Trp27-Lys547, R&D Systems 5795-EN-500) enzymatic activity was tested via the Malachite Green Phosphate Detection Kit (R&D DY996). Experiments were performed in 20 μL Tris buffer (25 mM Tris pH 7.5, 5 mM MgCl2, 0.002% Tween20), with 250 pM of hCD73. Test compounds of interest were prepared in a threefold serial dilution in DMSO and added to the assay to give the appropriate final concentration, with the assay DMSO concentration being 1%. Compounds were pre-incubated for 20 minutes with hCD73 in a 384 well clear plate (Greiner 781101), followed by the addition of adenosine monophosphate (AMP) to 12.5 μM. The enzymatic reaction was carried out for 20 min at room temperature. 5 μL of Malachite kit reagent A was added to stop the reaction (contains 3M H2SO4) and after 10 min, 5 μL of Malachite kit reagent B was added (Malachite Green). After 30 min, absorbance at 620 nm was read on a BMG Pherastar FSX.
Data were normalised to measurements in the absence of competing compound (0% inhibition) and in the presence of 10 μM control compound (100% inhibition). Competition curves were then fit to a 4-parameter logistic equation including a variable slope factor to determine the IC50 (compound concentration that inhibits 50% of 0073 activity).

CC1(C)CN(c2ncc(Cl)c3nn(-c4c[nH]c(=O)[nH]c4=O)cc23)CC1(F)F
IC50 [1]: 4 nM
IC50 (CD73 in whole blood): 13 nM
IC50 [2]: 29.3 nM
